{"source": "PubChem BioAssay AID1049", "about": "(The Scripps Research Institute Molecular Screening Center, 2008)", "note": "The entries are a selection whose mix differs from that of the whole data set. Calls of active or inactive are those of the source. Cut-off read from the data, not from the text of the source: active = TR-FRET ratio above about 2000; inactive = the rest."}
{"assay": "detection-format interference in TR-FRET ratio – biochemical, artefact control for PPARgamma SRC-2 agonist project, primary screen (AID 1049)", "conditions": "TR-FRET artefact counter-screen; at 8 µM; stronger effect = higher value"}
{"smiles": "Clc1n[nH]nc1-c1nn[nH][15n]1", "TR-FRET ratio": "inactive: 1580"}
{"smiles": "O=P1(Nc2ccccn2)COc2ccccc2OC1", "TR-FRET ratio": "inactive: 1700"}
{"smiles": "CC1(CBr)Cn2c(nc3ccccc3c2=O)S1", "note": "(stereo not given)", "TR-FRET ratio": "inactive: 1460"}
{"smiles": "CC(C)/C=N\\N=C(\\N)N[N+](=O)[O-]", "TR-FRET ratio": "inactive: 1390"}
{"smiles": "CN(C(=O)Cc1ccc(Cl)c(Cl)c1)[C@@H]1CCCC[C@H]1N1CCCC1", "TR-FRET ratio": "inactive: 1430"}
{"smiles": "CN(C)C1(CNC(=O)c2ccc(S(C)(=O)=O)cc2)CCCCC1", "TR-FRET ratio": "inactive: 1500"}
{"smiles": "Cc1nn(-c2ccccc2)c2c1P(=O)(N1CCOCC1)N(C)C(c1ccccc1)=N2", "note": "(stereo not given)", "TR-FRET ratio": "inactive: 1620"}
{"smiles": "CC1CCC(C(C)C)C(OP(=O)(Nc2ccccn2)c2ccccc2)C1", "note": "(stereo not given)", "TR-FRET ratio": "inactive: 1430"}
{"smiles": "O=P1(Nc2ccc(Br)cn2)COc2ccccc2OC1", "TR-FRET ratio": "inactive: 1380"}
{"smiles": "Cc1ccc(OCC(=O)OC2CN3CCC2CC3)cc1", "note": "(stereo not given)", "TR-FRET ratio": "inactive: 1660"}
{"smiles": "O=P1(Nc2ncccn2)COc2ccccc2OC1", "TR-FRET ratio": "inactive: 1500"}
{"smiles": "CCOP1(=S)c2c(C)nn(CCC#N)c2N=C(c2ccccc2F)N1C", "note": "(stereo not given)", "TR-FRET ratio": "inactive: 1540"}
{"smiles": "O=P(Nc1nccs1)(c1ccccc1)c1nc2ccccc2s1", "note": "(stereo not given)", "TR-FRET ratio": "inactive: 1660"}
{"smiles": "O=P(Nc1nccs1)(Oc1ccccc1)Oc1ccccc1", "TR-FRET ratio": "inactive: 1460"}
{"smiles": "O=[N+]([O-])c1ccc2c(c1)nnn2O", "TR-FRET ratio": "inactive: 1510"}
{"smiles": "CCOP1(=S)c2c(C)nn(CCC#N)c2N=C(c2ccc(F)cc2)N1C", "note": "(stereo not given)", "TR-FRET ratio": "inactive: 1360"}
{"smiles": "Cc1cccc(OCC(=O)OC2CN3CCC2CC3)c1", "note": "(stereo not given)", "TR-FRET ratio": "inactive: 1570"}
{"smiles": "COc1cc(C(=O)NCC2(N3CCOCC3)CCCCC2)cc(Cl)c1OC(C)C", "TR-FRET ratio": "inactive: 1750"}
{"smiles": "COc1cc(C2NCCC3(OCCO3)C2(C)C)cc(OC)c1OC", "note": "(stereo not given)", "TR-FRET ratio": "inactive: 1720"}
{"smiles": "CCOP(=O)(Nc1cccc2ccccc12)OCC", "TR-FRET ratio": "inactive: 1670"}
{"smiles": "Cc1ccc(NCCc2c([N+](=O)[O-])cc([N+](=O)[O-])cc2[N+](=O)[O-])cc1", "TR-FRET ratio": "inactive: 1760"}
{"smiles": "COc1ccc2nc(NP(=O)(c3ccccc3)c3ccccc3)sc2c1", "TR-FRET ratio": "inactive: 1580"}
{"smiles": "O=C(OC1CN2CCC1CC2)C12CC3CC(CC(C3)C1)C2", "note": "(stereo not given)", "TR-FRET ratio": "inactive: 1520"}
{"smiles": "Cc1cc(=O)[nH]c(N[N+](=O)[O-])n1", "TR-FRET ratio": "inactive: 1510"}
{"smiles": "Cc1c2c(nc3ccccc13)SC(C(Cl)Cl)C2", "note": "(stereo not given)", "TR-FRET ratio": "inactive: 1390"}
{"smiles": "COc1ccc(N/C(=N/P(=O)(N2CCOCC2)N2CCOCC2)N2CCOCC2)cc1", "TR-FRET ratio": "inactive: 1520"}
{"smiles": "Cc1ccc2nc3c(c(C)c2c1)CC(C(Cl)Cl)S3", "note": "(stereo not given)", "TR-FRET ratio": "inactive: 1430"}
{"smiles": "CCN(CC)C(=S)SC(NC=O)C(Cl)(Cl)Cl", "note": "(stereo not given)", "TR-FRET ratio": "inactive: 1520"}
{"smiles": "CC(C)NC(=O)NP(=O)(Oc1ccccc1)Oc1ccccc1", "TR-FRET ratio": "inactive: 1490"}
{"smiles": "O=[N+]([O-])c1cc([N+](=O)[O-])c(-c2ccn[nH]2)s1", "TR-FRET ratio": "inactive: 1710"}
{"smiles": "ClCCSc1nnc(-c2cccnc2)o1", "TR-FRET ratio": "inactive: 1510"}
{"smiles": "Cc1cc(SC(NC(=O)c2ccccc2)C(Cl)(Cl)Cl)nc(C(C)C)n1", "note": "(stereo not given)", "TR-FRET ratio": "inactive: 1690"}
{"smiles": "O=P(Nc1ccccn1)(c1cccc2ccccc12)c1cccc2ccccc12", "TR-FRET ratio": "inactive: 1340"}
{"smiles": "Cc1cc(SC(NC=O)C(Cl)(Cl)Cl)ncn1", "note": "(stereo not given)", "TR-FRET ratio": "inactive: 1730"}
{"smiles": "O=C(COc1ccccc1)OC1CN2CCC1CC2", "note": "(stereo not given)", "TR-FRET ratio": "inactive: 1410"}
{"smiles": "COP1(=S)c2c(C)nn(CCC#N)c2N=C(c2ccc(F)cc2)N1C", "note": "(stereo not given)", "TR-FRET ratio": "inactive: 1600"}
{"smiles": "CCC(C)N(CC(C)C)C(=S)SC(NC(C)=O)C(Cl)(Cl)Cl", "note": "(stereo not given)", "TR-FRET ratio": "inactive: 1790"}
{"smiles": "O=[N+]([O-])c1cccc2n[nH]nc12", "TR-FRET ratio": "inactive: 1620"}
{"smiles": "CC(=O)N1C2C3N(C(C)=O)C1C1N(C(C)=O)C(C(N1C(C)=O)N3C(C)=O)N2C(C)=O", "TR-FRET ratio": "inactive: 1590"}
{"smiles": "Cc1ccc(NP(=O)(Oc2ccccc2)Oc2ccccc2)nc1", "TR-FRET ratio": "inactive: 1610"}
{"smiles": "CCc1nc2c(n1)c1c(non1O)c1c2no[n+]1[O-]", "TR-FRET ratio": "inactive: 1550"}
{"smiles": "O=[N+]([O-])c1cc([N+](=O)[O-])c(CCNc2ccccc2)c([N+](=O)[O-])c1", "TR-FRET ratio": "inactive: 1720"}
{"smiles": "COc1ccc(C2=NCC(CBr)S2)cc1", "note": "(stereo not given)", "TR-FRET ratio": "inactive: 1270"}
{"smiles": "CC(C)=N/N=C(\\N)N[N+](=O)[O-]", "TR-FRET ratio": "inactive: 1240"}
{"smiles": "CN(C)C(=O)OCCc1n(C)cc[n+]1C", "TR-FRET ratio": "inactive: 1530"}
{"smiles": "CC1CCN(C(=O)Oc2c(Cl)cc(Cl)c3cccnc23)CC1", "TR-FRET ratio": "inactive: 1560"}
{"smiles": "CCN(/C(=N/P(=O)(N1CCOCC1)N1CCOCC1)N1CCOCC1)c1ccc(OC)cc1", "TR-FRET ratio": "inactive: 1510"}
{"smiles": "O=[N+]([O-])c1ncn(CCn2ncnc2[N+](=O)[O-])n1", "TR-FRET ratio": "inactive: 1730"}
{"smiles": "CCOP(=O)(Nc1ccccc1)OCC", "TR-FRET ratio": "inactive: 1470"}
{"smiles": "Cc1cc(SC(NC(=O)c2ccc(F)cc2)C(Cl)(Cl)Cl)ncn1", "note": "(stereo not given)", "TR-FRET ratio": "inactive: 1630"}
{"smiles": "CCN(N=Nc1nonc1N)c1nonc1N", "TR-FRET ratio": "inactive: 1600"}
{"smiles": "COc1ccccc1OP(=O)(Nc1ccc(C)cn1)Oc1ccccc1OC", "TR-FRET ratio": "inactive: 1340"}
{"smiles": "Clc1ccc(Cl)c(NC2=NCC(CBr)S2)c1", "note": "(stereo not given)", "TR-FRET ratio": "inactive: 1610"}
{"smiles": "CN1CCCC(OC(=O)C(c2ccccc2)c2ccccc2)C1", "note": "(stereo not given)", "TR-FRET ratio": "inactive: 1540"}
{"smiles": "NC(=O)c1cc([N+](=O)[O-])cc([N+](=O)[O-])c1N", "TR-FRET ratio": "inactive: 1440"}
{"smiles": "Cc1ccc(N/C(=N/P(=O)(N2CCOCC2)N2CCOCC2)N2CCOCC2)cc1", "TR-FRET ratio": "inactive: 1650"}
{"smiles": "CC(C)CC(=O)NC(Sc1ccc(Cl)cc1)C(Cl)(Cl)Cl", "note": "(stereo not given)", "TR-FRET ratio": "inactive: 1450"}
{"smiles": "Oc1ccccc1CNc1ccccn1", "TR-FRET ratio": "inactive: 1560"}
{"smiles": "Cc1c2non([O-])c-2c(C)[n+](=O)[n+]1[O-]", "TR-FRET ratio": "inactive: 1550"}
{"smiles": "O=C(NC(Sc1ccncn1)C(Cl)(Cl)Cl)c1ccccc1", "note": "(stereo not given)", "TR-FRET ratio": "inactive: 1670"}
{"smiles": "CC(C)(C)C(=O)NC(Sc1ccccc1)C(Cl)(Cl)Cl", "note": "(stereo not given)", "TR-FRET ratio": "inactive: 1550"}
{"smiles": "O=P1(Nc2nc3ccc(Cl)cc3s2)COc2ccccc2O1", "note": "(stereo not given)", "TR-FRET ratio": "inactive: 1540"}
{"smiles": "CCOc1ccc(C2=NCC(CBr)S2)cc1", "note": "(stereo not given)", "TR-FRET ratio": "inactive: 1740"}
{"smiles": "CC(=O)Nc1ccc(Oc2c([N+](=O)[O-])cc([N+](=O)[O-])cc2[N+](=O)[O-])cc1", "TR-FRET ratio": "inactive: 1520"}
{"smiles": "CCNC(=S)/N=C(\\N)N[N+](=O)[O-]", "TR-FRET ratio": "inactive: 1610"}
{"smiles": "O=C(NC1CCS(=O)(=O)C1)NP(=S)(Oc1ccccc1)Oc1ccccc1", "note": "(stereo not given)", "TR-FRET ratio": "inactive: 1500"}
{"smiles": "c1ccc(-c2nn[nH]n2)c(-c2nn[nH]n2)c1", "TR-FRET ratio": "inactive: 1500"}
{"smiles": "CCOC(=O)NC(Sc1ccccc1)C(Cl)(Cl)Cl", "note": "(stereo not given)", "TR-FRET ratio": "inactive: 1230"}
{"smiles": "O=c1c2cc([N+](=O)[O-])ccc2[nH]c2c([N+](=O)[O-])cc([N+](=O)[O-])cc12", "TR-FRET ratio": "inactive: 1590"}
{"smiles": "COC(=O)c1cc2c(s1)N=C(c1ccccc1)N(C)P2(=O)N1CCOCC1", "note": "(stereo not given)", "TR-FRET ratio": "inactive: 1630"}
{"smiles": "Cc1ccc(OP(=O)(Nc2ccccn2)Oc2ccc(C)cc2)cc1", "TR-FRET ratio": "inactive: 1470"}
{"smiles": "CC(=O)NC(SC(=S)N(CC(C)C)CC(C)C)C(Cl)(Cl)Cl", "note": "(stereo not given)", "TR-FRET ratio": "inactive: 1840"}
{"smiles": "CCC(=O)N1C2C3N(C(=O)CC)C1C1N(C(=O)CC)C(C(N1C(=O)CC)N3C(=O)CC)N2C(=O)CC", "TR-FRET ratio": "inactive: 1520"}
{"smiles": "O=P(Nc1ccccn1)(c1ccc(Br)cc1)c1ccc(Br)cc1", "TR-FRET ratio": "inactive: 1570"}
{"smiles": "C(Cc1nn[nH]n1)Cc1nn[nH]n1", "TR-FRET ratio": "inactive: 1460"}
{"smiles": "O=C(OC1CN2CCC1CC2)c1cccc(Cl)c1", "note": "(stereo not given)", "TR-FRET ratio": "inactive: 1440"}
{"smiles": "CC(=O)NC(SC(=S)N(C)C)C(Cl)(Cl)Cl", "note": "(stereo not given)", "TR-FRET ratio": "inactive: 1370"}
{"smiles": "c1nnnn1CCn1cnnn1", "TR-FRET ratio": "inactive: 1580"}
{"smiles": "CC(C)C(=O)NC(Sc1ccccc1)C(Cl)(Cl)Cl", "note": "(stereo not given)", "TR-FRET ratio": "inactive: 1620"}
{"smiles": "O=P(Nc1nccs1)(c1ccccc1)c1ccccc1", "TR-FRET ratio": "inactive: 1680"}
